{
  "sequences": {"note": "Sequences of proteins named here, by UniProt entry; tags and fusion partners are left off.", "UniProt P10275, whole entry": "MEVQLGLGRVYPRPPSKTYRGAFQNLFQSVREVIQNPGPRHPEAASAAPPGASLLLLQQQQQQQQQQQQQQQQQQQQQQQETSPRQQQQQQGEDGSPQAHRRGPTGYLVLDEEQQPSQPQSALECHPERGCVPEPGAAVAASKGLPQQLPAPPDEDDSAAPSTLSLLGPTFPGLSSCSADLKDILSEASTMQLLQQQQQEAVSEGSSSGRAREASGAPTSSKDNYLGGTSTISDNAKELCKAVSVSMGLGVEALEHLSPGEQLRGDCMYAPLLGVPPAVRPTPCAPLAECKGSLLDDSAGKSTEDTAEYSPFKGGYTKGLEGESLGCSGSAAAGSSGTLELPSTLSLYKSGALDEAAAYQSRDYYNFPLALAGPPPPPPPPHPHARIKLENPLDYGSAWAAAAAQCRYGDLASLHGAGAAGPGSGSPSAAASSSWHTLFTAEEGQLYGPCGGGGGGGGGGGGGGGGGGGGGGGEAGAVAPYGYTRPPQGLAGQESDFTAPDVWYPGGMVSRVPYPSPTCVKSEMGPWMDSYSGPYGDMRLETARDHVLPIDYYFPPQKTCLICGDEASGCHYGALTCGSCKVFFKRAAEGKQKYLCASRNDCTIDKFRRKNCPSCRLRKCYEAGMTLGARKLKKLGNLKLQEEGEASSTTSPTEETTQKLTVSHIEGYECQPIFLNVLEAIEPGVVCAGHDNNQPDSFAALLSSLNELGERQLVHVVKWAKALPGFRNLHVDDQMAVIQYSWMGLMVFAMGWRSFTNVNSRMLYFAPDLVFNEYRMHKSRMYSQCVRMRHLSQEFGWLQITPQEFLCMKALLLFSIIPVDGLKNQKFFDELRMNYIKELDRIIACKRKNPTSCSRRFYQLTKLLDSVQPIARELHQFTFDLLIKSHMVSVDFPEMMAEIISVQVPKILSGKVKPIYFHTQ"},
  "source": "patent US7803826B2",
  "about": "“Imidazolidine derivatives” (Chugai Seiyaku Kabushiki Kaisha, priority 2004, dated 2010)",
  "key": {"androgen receptor [1]": {"molecular_target": "T1, androgen receptor (Homo sapiens, UniProt P10275)", "experiment": "Investigation of agonist effects: androgen receptor reporter gene (MMTV-luciferase) assay in 11A11B2 cells", "assay_type": "cell-based", "settings": "compound concentration showing a transcription activity of 5% (0.1 nmol/L DHT = 100%, assay medium alone = 0%), 48 hours"}, "androgen receptor [2]": {"molecular_target": "T1, androgen receptor", "experiment": "Investigation of antagonist effects: androgen receptor reporter gene (MMTV-luciferase) assay in 11A11B2 cells with 0.1 nmol/L DHT", "assay_type": "cell-based", "settings": "48 hours, agonist transcription activity rate of Test Example 1 subtracted"}},
  "data": [
    {"smiles": "Cc1c(N2C(=O)C(C)(C)N(CCCS(N)(=O)=O)C2=S)ccc(C#N)c1C(F)(F)F", "values": [
      {"measurement": "EC5", "setting": "androgen receptor [1]", "result": 2000, "unit": "nM"},
      {"measurement": "IC50", "setting": "androgen receptor [2]", "result": 100, "unit": "nM"}
    ]}
  ]
}
